Measurements from US9180120B2, “Substituted N-phenethyltriazoloneacetamides and use thereof” (Bayer Intellectual Property GmbH, priority 2010, dated 2015).

Protein sequences, listed by entry. Tags and fused reporters are not part of them.
UniProt P30518, whole entry: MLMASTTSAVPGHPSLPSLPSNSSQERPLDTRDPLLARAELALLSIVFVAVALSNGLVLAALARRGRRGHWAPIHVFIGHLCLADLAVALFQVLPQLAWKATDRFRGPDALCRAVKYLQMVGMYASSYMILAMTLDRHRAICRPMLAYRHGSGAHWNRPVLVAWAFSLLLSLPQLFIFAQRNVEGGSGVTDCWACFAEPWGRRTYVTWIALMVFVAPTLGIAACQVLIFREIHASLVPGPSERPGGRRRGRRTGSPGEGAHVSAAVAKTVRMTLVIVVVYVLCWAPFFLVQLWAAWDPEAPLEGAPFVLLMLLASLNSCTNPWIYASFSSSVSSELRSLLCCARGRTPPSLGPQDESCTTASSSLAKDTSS
UniProt P37288, whole entry: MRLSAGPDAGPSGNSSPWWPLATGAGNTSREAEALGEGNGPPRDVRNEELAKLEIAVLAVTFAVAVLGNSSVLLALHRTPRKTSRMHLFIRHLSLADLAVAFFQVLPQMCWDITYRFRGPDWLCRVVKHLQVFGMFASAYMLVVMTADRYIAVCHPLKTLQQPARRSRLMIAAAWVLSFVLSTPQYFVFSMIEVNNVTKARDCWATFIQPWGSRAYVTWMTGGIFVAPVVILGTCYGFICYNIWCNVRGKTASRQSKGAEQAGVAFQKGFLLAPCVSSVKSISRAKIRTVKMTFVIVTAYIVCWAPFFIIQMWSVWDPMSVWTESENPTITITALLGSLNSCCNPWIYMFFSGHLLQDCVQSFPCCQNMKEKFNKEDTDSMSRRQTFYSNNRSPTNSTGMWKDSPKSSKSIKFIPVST

Assays:
[1] = biological target: human V2 receptor (Homo sapiens (Human), UniProt P30518); experiment: Cellular in vitro assay for determining the vasopressin receptor activity (aequorin luminescence, CHO cells, antagonism of [Arg8]-vasopressin); assay type: cell-based; conditions: cell line transfected with the human V2 receptor; agonist [Arg8]-vasopressin; read-out: IC50 hV2
From the text: (§1) • EDTA ethylenediaminetetraacetic acid • DMEM Dulbecco's Modified Eagle Medium • FCS foetal calf serum • HEPES 4-(2-hydroxyethyl)-1-piperazineethanesulphonic acid • SmGM Smooth Muscle Cell Growth Media • Tris-HCl 2-amino-2-(hydroxymethyl)-1,3-propanediol hydrochloride B-1. Cellular in vitro Assay for Determining the Vasopressin Receptor Activity
(§2) The identification of agonists and antagonists of the V1a and V2 vasopressin receptors from humans and rats and also the quantification of the activity of the compounds of the invention takes place using recombinant cell lines. […] In addition, the cells are stably transfected with the human or rat V1a or V2 receptors.
(§3) On the day before the assay, the cells are plated out in culture medium (DMEM, 10% FCS, 2 mM glutamine, 10 mM HEPES) in 384-well microtitre plates and kept in a cell incubator (96% humidity, 5% v/v CO2, 37° C.). On the day of the assay, the culture medium is replaced by a Tyrode solution (140 mM NaCl, 5 mM KCl, 1 mM MgCl2, 2 mM CaCl2, 20 mM glucose, 20 mM HEPES), which additionally contains the cofactor coelenterazine (50 μM), and the microtitre plate is then incubated for a further 3-4 hours. The test substances in various concentrations are placed for 10 to 20 minutes in the wells of the microtitre plate before the agonist [Arg^8]-vasopressin is added, and the resulting light signal is measured immediately in the luminometer.

[2] = biological target: human V1a receptor (Homo sapiens (Human), UniProt P37288); experiment: as above; assay type: cell-based; conditions: cell line transfected with the human V1a receptor; agonist [Arg8]-vasopressin; read-out: IC50 hV1a
From the text: as §1, §2, §3

IC50 [1] [nM]	IC50 [2] [nM]	SMILES
1		NC(=O)OCC(CNC(=O)Cn1nc(-c2ccc(Cl)cc2)n(C[C@H](O)C(F)(F)F)c1=O)c1ccccc1Cl (single isomer, unassigned) [Example 6]
	13	CC(C)(C)OC(=O)NC(CNC(=O)Cn1nc(-c2ccc(Cl)cc2)n(C[C@H](O)C(F)(F)F)c1=O)c1cccc(Cl)c1Cl (single isomer, unassigned) [Example 19]
